The subject of the data set is C3H mice. As to the kind of experiment: Mitigation of radiation-induced lethality in C3H mice (8Gy, LD100/30). Particulars: 75 mg/kg s.c. after 8Gy.

Turning to `COc1ccc2cc(-c3nc4ccc(C)cn4c3NCc3ccco3)c(=O)[nH]c2c1` [Yel002], the “signs of toxicity or adverse effects” value is “Without any signs of toxicity or advert effects”.

The values above are taken from patent US9045474B2, “Compounds and compositions for mitigating tissue damage and lethality” (The Regents of the University of California, priority 2010, dated 2015).
